Source: patent publication US20120277239A1, “Compositions and Methods for Improving Night Vision” (ALPHA SYNERGY DEVELOPMENT INC., priority 2011, published 2012)

Key:
[1] = test system: dark-adapted pupil diameter; conditions: brimonidine at 0.10-0.20%; after several weeks of daily use; cited from earlier work
[2] = topically applied brimonidine at 0.15%; cited from earlier work
pupil size = conditions: brimonidine 0.025%, pH 7.0 q am; Day 2.1 (follows 20 days of consecutive use)
Method: The pupil size was measured at the baseline and then 10 minutes and 3 hours after instillation for 3 consecutive weeks.

Structure (SMILES): Brc1c(N=C2NCCN2)ccc2nccnc12.O=C(O)C(O)C(O)C(=O)O [brimonidine, 5-bromo-6-(2-imidazolin-2-ylamino)quinoxaline D-tartrate]
- patients having total tachyphylaxis and loss of effect [1]: ~100%
- patients experiencing drowsiness or headaches [2]: At least 1%
- patients experiencing rebound hyperemia (redness) [2]: about 25%
- Tachyphylaxis (pupil size): No tachyphylaxis was noted
